The values below are quoted from earlier work in paper PMC3764403, “Structure-Based Dissection of the Natural Product Cyclopentapeptide Chitinase Inhibitor Argifin” (Chemistry & Biology, 2008).

The data set addresses T1, human chitotriosidase (hCHT) (Homo sapiens, UniProt Q13231).
T1 sequence (Q13231 22-466): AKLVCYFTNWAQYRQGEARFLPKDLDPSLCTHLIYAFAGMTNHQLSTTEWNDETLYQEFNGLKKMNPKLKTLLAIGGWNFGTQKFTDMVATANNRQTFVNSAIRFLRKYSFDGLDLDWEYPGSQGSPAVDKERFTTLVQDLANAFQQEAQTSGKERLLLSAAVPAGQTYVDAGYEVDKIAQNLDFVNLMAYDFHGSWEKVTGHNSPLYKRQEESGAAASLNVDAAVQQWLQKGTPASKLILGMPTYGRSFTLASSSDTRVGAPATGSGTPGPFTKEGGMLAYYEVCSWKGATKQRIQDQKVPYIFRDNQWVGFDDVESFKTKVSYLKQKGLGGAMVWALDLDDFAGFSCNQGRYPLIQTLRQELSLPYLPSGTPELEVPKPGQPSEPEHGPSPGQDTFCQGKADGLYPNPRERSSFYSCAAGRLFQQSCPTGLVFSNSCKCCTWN
Particulars: Table 1, argifin value reported previously, ref Rao et al., 2005b, Dixon et al.; cited from earlier work.

In the case of argifin (RFDDA), the IC50 is 4.5 µM.
